The values below come from BindingDB's records for doi:10.1016/s0028-3908(96)00054-8 (National Institute of Diabetes, Digestive and Kidney …, 1996).

Sequences of proteins named here, by UniProt entry; tags and fusion partners are left off.
UniProt P28471, whole entry: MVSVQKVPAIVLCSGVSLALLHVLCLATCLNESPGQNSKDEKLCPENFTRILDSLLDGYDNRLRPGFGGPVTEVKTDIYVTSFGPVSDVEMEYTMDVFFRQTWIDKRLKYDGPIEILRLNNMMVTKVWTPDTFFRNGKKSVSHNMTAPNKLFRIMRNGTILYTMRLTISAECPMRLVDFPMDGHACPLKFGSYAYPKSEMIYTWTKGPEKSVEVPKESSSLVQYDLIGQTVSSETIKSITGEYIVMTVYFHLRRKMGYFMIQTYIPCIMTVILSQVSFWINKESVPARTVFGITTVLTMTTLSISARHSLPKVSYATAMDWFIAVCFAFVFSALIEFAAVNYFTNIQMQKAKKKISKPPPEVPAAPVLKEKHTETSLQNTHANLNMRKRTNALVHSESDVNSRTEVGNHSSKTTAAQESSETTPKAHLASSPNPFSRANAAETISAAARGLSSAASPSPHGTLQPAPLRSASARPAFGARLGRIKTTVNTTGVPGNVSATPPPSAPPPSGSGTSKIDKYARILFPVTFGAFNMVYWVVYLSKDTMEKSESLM

By Ki is commonly meant the equilibrium dissociation constant of an inhibitor or competing ligand from its target.

In the experiment the target is Gamma-aminobutyric acid receptor subunit alpha-4 (Rattus norvegicus, UniProt P28471).

Consider `CCOC(=O)c1ncn2c1CN(C)C(=O)c1cc(N=[N+]=[N-])ccc1-2` [RO-154513], for which affinity was put at a Ki of 3.4 nM. This lies in the single-digit nanomolar range.
